In US20210230178A1, “TRIOXACARCIN ANALOGS AND DIMERS AS POTENT ANTICANCER AGENTS” (William Marsh Rice University, priority 2017, published 2021):

Key:
[1] = test system: MES SA (human uterine sarcoma); details: read-out: IC50 MES SA
[2] = test system: HEK 293T (human embryonic kidney cancer cell line); details: read-out: IC50 HEK 293T
[3] = test system: MES SA DX (human uterine sarcoma cell line with marked multidrug resistance); details: read-out: IC50 MES SA DX

(1S,2S,3aS,4R,13aR)-2-(1,3-Dioxolan-2-yl)-12-hydroxy-7-methoxy-5-methyl-11-oxo-3a,4,8,9,10,11-hexahydro-13aH-spiro[2,4-epoxyfuro[3,2-b]naphtho[2,3-h]chromene-1,2′-oxiran]-13a-yl 2,4-dideoxy-4-(isopropylamino)-3-O-methylpentopyranoside [Trx11]
IC50 [1]: 1.07 nM | IC50 [2]: 0.92 nM | IC50 [3]: 3.03 nM
